This assay addresses full-length VEGFR-2 with YFP or mCherry attached to the C-terminus via a GGS linker (human), P35968. The experiment in a line: FRET or BRET; QI-FRET between YFP- and mCherry-tagged copies in single plasma membrane-derived vesicles of co-transfected CHO cells, no ligand; monomer-dimer equilibrium model, dimer to monomers; two-dimensional concentrations (receptors per square micron). Conditions: remark: other sources report otherwise. On the technique in general: In BRET a luciferase serves as donor, and the signal depends on an acceptor being close.

B1: full-length VEGFR-2 with YFP or mCherry attached to the C-terminus via a GGS linker (receptor)
chain: ASVGLPSVSLDLPRLSIQKDILTIKANTTLQITCRGQRDLDWLWPNNQSGSEQRVEVTECSDGLFCKTLTIPKVIGNDTGAYKCFYRETDLASVIYVYVQDYRSPFIASVSDQHGVVYITENKNKTVVIPCLGSISNLNVSLCARYPEKRFVPDGNRISWDSKKGFTIPSYMISYAGMVFCEAKINDESYQSIMYIVVVVGYRIYDVVLSPSHGIELSVGEKLVLNCTARTELNVGIDFNWEYPSSKHQHKKLVNRDLKTQSGSEMKKFLSTLTIDGVTRSDQGLYTCAASSGLMTKKNSTFVRVHEKPFVAFGSGMESLVEATVGERVRIPAKYLGYPPPEIKWYKNGIPLESNHTIKAGHVLTIMEVSERDTGNYTVILTNPISKEKQSHVVSLVVYVPPQIGEKSLISPVDSYQYGTTQTLTCTVYAIPPPHHIHWYWQLEEECANEPSQAVSVTNPYPCEEWRSVEDFQGGNKIEVNKNQFALIEGKNKTVSTLVIQAANVSALYKCEAVNKVGRGERVISFHVTRGPEITLQPDMQPTEQESVSLWCTADRSTFENLTWYKLGPQPLPIHVGELPTPVCKNLDTLWKLNATMFSNSTNDILIMELKNASLQDQGDYVCLAQDRKTKKRHCVVRQLTVLERVAPTITGNLENQTTSIGESIEVSCTASGNPPPQIMWFKDNETLVEDSGIVLKDGNRNLTIRRVRKEDEGLYTCQACSVLGCAKVEAFFIIEGAQEKTNLEIIILVGTAVIAMFFWLLLVII[about 550 residues not listed]
Consider B1, for which the percent dimer at 10 to 100 receptors per square micron fell in the range of 30 to 60%.

Source of the values: publication PMC4829425.
